Read-outs that look alike come from different tables or passages of the source.

Chains of the proteins cited; added tags and fusions are not shown.
UniProt P28482, whole entry: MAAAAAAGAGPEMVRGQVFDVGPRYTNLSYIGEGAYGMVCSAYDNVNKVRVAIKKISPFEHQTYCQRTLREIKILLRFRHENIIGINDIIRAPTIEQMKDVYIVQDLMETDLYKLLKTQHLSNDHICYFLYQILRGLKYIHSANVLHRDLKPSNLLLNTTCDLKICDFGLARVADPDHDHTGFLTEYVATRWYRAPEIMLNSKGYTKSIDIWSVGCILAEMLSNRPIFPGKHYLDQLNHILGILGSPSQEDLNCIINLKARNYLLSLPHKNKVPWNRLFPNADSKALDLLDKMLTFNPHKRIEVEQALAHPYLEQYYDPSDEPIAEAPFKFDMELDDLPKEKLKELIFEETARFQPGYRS

For this assay, the target named is phosphorylated active hERK2 enzyme (Homo sapiens (Human), UniProt P28482). Kind of assay: Active Human ERK2 (hERK2) Activity Assay (IMAP-FP). It counts as biochemical. The conditions noted are these: 10 point titration, read-out: AERK2 IC50. The procedure:
Assays Active Human ERK2 (hERK2) Activity Assay:
Activated ERK2 activity was determined in an IMAP-FP assay (Molecular Devices). […] The final reaction in each well of 25 μL consists of 0.5 nM hERK2, 900 nM unlabeled peptide, 80 nM labeled-peptide, and 30 μM ATP. Phosphorylation reactions were allowed to proceed for 60 minutes and were immediately quenched by the addition of 60 μL IMAP detection beads (1:1000 dilutions) in IMAP binding buffer (Molecular Devices) with 24 mM NaCl. Plates were read on EnVision reader after 60 minutes binding equilibration using Fluorescence Polarization protocol (Perkin Elmer).

The mark [1] stands for this setting: Table 6, 0.5 nM hERK2, 30 μM ATP.
Where [2] appears, read: Table 5, 0.5 nM hERK2, 30 μM ATP.

As to `C[C@@H](O)[C@@H](NC(=O)Nc1cc2[nH]nc(N3CCOCC3)c2cn1)c1ccccc1` [Example 96, 1-[(1S,2R)-2-hydroxy-1-phenylpropyl]-3-(3-morpholin-4-yl-1H-pyrazolo[4,3-c]-pyridin-6-yl)urea], the IC50 under setting [1] worked out at 300 pM.
On the same count and under the same terms, the value for `CC(O)[C@@H](NC(=O)Nc1cc2[nH]nc(N3CCOCC3)c2cn1)c1ccccc1` (stereo partly drawn) [Example 455, 1-[(1S)-2-hydroxy-1-phenylpropyl]-3-(3-morpholin-4-yl-1H-pyrazolo[4,3-c]pyridin-6-yl)urea] was 300 pM.
Consider `COC[C@@H](NC(=O)Nc1cc2[nH]nc(N3CCO[C@H](C)C3)c2cn1)c1ccccc1` [Example 39, 1-[(1S)-2-Methoxy-1-phenylethyl]-3-{3-[(2R)-2-methylmorpholin-4-yl]-1H-pyrazolo[4,3-c]pyridin-6-yl}urea], for which the IC50 under setting [2] is 1450 pM.
On to `COC[C@@H](NC(=O)Nc1cc2[nH]nc(N3CCO[C@@H](C)C3)c2cn1)c1ccccc1` [Example 40, 1-[(1S)-2-methoxy-1-phenylethyl]-3-{3-[(2S)-2-methylmorpholin-4-yl]-1H-pyrazolo[4,3-c]pyridin-6-yl}urea], for which the IC50 under setting [2] is 630 pM.

These data come from US9233979B2, “Compounds that are ERK inhibitors” (Merck Sharp & Dohme Corp., priority 2012, dated 2016).
